Data published in patent publication US20040024005A1, “Methods and compositions for reducing the development of drug tolerance and/or physical dependence” (The Regents of the University of California, priority 2002, published 2004).

Tested on: HA-D MOR (MOR chimera with delta opioid receptor cytoplasmic tail)

Compound: CN1CC[C@]23c4c5ccc(O)c4O[C@H]2[C@@H](O)C=C[C@H]3[C@H]1C5 [morphine, (5α,6α)-7,8-didehydro-4,5-epoxy-17-methylmorphinan-3,6-diol]
- D MOR endocytosis: efficiently internalized
